The source of these data is patent US20230026616A1, “PYRIMIDOIMIDAZOLE COMPOUNDS USED AS DNA-PK INHIBITORS” (MEDSHINE DISCOVERY INC., priority 2019, published 2023).

The chains behind the UniProt entries cited, without tags or fusion partners.
UniProt P78527, whole entry: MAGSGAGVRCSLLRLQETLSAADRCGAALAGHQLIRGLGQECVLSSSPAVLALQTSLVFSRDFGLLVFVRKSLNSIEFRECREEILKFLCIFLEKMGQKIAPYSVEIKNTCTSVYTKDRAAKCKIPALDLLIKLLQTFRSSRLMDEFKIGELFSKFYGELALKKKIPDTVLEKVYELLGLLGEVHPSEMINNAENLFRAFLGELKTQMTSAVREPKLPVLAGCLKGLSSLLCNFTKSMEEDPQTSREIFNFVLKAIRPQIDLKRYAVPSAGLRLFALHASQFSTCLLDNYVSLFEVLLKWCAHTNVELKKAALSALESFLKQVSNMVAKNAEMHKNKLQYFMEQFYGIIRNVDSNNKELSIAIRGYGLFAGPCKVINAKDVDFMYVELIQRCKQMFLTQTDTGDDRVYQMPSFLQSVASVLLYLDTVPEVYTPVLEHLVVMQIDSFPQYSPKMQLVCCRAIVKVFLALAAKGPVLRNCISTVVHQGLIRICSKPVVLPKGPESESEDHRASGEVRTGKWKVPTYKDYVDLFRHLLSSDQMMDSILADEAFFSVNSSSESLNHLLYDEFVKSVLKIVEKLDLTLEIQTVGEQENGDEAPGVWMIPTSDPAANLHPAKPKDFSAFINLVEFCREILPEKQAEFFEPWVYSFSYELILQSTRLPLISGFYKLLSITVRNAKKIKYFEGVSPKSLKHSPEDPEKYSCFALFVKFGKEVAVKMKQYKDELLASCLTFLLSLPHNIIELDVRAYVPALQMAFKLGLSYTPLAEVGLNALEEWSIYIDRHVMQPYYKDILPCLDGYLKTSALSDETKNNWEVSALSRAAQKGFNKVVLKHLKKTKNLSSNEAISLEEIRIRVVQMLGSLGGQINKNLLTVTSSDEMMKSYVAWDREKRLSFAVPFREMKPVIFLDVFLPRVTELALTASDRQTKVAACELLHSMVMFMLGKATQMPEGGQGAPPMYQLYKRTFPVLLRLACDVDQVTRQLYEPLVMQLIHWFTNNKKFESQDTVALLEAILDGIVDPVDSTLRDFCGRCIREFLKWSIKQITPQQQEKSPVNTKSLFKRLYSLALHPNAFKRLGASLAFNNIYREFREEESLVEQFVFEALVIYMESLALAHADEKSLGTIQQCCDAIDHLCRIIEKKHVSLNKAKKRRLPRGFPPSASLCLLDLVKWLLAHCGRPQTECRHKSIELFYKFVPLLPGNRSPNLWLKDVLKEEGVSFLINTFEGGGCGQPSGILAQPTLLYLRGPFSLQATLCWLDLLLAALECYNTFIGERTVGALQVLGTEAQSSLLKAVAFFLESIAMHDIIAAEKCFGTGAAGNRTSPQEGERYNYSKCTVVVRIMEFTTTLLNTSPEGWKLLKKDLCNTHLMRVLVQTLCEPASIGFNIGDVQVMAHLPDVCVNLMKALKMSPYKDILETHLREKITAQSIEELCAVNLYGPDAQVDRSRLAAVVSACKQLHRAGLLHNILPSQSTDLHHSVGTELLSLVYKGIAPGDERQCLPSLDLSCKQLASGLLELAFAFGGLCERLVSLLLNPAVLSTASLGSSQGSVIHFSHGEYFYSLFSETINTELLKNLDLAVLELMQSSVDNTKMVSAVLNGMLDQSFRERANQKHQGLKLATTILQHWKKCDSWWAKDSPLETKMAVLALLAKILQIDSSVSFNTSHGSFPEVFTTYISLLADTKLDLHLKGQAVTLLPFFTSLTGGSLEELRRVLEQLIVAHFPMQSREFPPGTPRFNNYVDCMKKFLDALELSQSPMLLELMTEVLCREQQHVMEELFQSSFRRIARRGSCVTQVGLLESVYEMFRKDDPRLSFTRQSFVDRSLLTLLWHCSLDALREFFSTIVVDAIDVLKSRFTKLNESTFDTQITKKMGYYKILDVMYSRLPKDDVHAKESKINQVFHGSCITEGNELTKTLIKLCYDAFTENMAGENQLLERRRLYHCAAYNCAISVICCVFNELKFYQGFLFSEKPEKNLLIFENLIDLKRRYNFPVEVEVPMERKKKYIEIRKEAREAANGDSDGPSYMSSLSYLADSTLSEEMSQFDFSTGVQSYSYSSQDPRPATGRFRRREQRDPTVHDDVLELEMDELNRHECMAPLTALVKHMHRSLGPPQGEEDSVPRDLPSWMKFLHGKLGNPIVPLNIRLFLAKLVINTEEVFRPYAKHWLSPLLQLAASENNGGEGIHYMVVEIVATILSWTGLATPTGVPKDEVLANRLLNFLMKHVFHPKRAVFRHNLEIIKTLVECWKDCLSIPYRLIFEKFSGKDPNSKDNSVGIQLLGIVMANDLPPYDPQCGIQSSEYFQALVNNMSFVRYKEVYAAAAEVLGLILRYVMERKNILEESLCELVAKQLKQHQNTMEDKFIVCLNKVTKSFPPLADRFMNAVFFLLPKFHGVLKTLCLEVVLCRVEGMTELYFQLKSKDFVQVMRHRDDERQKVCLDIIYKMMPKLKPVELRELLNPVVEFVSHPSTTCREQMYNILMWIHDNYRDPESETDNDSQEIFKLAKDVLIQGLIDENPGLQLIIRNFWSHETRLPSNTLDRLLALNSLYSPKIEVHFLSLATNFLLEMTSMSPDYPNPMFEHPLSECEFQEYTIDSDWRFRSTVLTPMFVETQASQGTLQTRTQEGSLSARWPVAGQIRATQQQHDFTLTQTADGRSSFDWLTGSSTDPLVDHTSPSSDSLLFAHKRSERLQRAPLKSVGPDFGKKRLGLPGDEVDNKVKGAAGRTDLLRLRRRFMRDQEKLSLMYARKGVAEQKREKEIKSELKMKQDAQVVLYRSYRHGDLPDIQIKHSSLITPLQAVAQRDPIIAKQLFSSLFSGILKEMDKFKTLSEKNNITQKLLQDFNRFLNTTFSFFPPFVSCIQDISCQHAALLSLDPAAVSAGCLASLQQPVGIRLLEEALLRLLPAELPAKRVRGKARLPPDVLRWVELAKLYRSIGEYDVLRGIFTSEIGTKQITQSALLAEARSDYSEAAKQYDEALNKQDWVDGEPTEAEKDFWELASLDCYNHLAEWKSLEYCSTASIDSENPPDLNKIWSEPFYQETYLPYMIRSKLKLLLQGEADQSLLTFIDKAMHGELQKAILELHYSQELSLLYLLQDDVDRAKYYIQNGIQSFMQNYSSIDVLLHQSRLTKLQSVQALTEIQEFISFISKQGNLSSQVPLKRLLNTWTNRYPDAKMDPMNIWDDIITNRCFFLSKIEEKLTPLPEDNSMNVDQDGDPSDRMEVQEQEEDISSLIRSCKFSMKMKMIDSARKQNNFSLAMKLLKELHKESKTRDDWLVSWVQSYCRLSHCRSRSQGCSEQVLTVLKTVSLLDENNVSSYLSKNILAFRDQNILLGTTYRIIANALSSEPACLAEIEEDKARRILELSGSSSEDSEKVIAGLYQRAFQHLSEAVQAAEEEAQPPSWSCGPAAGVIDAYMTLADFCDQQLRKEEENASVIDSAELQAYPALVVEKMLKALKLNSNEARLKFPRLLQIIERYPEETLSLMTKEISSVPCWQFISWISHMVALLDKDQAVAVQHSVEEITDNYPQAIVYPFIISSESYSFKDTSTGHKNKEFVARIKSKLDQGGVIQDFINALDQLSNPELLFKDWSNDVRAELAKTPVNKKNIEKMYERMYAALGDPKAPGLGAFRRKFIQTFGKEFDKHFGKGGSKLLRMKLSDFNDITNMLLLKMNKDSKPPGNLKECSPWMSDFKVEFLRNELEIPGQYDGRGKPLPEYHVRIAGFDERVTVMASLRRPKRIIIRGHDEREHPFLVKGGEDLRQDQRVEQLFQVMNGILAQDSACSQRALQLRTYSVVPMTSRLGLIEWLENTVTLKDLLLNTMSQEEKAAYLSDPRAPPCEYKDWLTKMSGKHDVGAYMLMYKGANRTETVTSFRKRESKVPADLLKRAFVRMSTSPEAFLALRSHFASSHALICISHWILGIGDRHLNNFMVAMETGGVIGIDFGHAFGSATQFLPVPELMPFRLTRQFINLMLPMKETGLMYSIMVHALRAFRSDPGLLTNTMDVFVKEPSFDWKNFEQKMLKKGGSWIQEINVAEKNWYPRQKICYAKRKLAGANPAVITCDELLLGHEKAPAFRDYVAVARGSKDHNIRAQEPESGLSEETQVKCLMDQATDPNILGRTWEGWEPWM
UniProt P12956, whole entry partner: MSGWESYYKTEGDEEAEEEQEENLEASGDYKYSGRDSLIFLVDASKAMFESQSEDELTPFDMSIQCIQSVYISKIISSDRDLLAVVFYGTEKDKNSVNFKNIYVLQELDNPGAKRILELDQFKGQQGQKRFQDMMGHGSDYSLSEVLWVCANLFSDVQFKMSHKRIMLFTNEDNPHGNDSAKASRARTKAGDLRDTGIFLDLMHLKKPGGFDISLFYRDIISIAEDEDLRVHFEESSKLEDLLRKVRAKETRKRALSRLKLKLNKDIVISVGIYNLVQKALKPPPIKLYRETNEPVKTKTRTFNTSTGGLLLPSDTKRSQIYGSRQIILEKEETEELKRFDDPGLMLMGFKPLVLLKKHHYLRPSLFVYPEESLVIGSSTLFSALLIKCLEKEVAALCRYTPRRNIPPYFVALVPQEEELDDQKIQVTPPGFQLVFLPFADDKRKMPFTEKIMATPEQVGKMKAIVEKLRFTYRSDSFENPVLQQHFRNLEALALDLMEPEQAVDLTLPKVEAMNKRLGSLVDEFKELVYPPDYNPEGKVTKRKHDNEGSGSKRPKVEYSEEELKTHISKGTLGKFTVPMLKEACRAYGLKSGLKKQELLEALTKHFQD
UniProt P13010, whole entry partner: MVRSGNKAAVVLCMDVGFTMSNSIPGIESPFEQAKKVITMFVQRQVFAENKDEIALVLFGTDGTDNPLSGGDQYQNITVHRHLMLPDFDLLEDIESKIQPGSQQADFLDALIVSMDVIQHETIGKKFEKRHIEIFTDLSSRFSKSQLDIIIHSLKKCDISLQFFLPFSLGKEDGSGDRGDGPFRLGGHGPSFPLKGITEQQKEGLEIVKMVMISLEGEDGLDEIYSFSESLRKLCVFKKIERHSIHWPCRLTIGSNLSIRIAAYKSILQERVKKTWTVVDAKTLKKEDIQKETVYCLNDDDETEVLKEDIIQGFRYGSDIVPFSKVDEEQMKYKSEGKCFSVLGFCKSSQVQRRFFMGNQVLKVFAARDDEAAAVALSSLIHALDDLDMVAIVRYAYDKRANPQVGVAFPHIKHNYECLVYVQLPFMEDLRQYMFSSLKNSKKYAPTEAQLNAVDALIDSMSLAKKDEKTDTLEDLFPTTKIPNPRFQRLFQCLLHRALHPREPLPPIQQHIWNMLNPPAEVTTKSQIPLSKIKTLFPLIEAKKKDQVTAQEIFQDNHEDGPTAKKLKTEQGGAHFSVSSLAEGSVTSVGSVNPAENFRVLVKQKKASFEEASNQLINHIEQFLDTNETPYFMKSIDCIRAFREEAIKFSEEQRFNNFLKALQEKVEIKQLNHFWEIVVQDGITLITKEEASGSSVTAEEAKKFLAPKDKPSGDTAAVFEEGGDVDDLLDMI

The test addresses Human DNA-PK (Homo sapiens, UniProt P78527). As to the kind of experiment: DNA-dependent protein kinase (DNA-PK) inhibitory activity screening (Eurofins, HTRF). The conditions noted are these: read-out: DNA-PK kinase inhibition IC50; ATP: 10 μM. As to the method: Experimental Embodiment 1: DNA-Dependent Protein Kinase (DNA-PK) Inhibitory Activity Screening Experiment
This experiment was tested in the Eurofins
Human DNA-PK; Mg/ATP; GST-cMyc-p53; EDTA; Ser15 antibody; ATP: 10 μM.
Experimental Method (Eurofins Pharma Discovery Service):
DNA-PK (h) was incubated in assay buffer containing 50 nM GST-cMyc-p53 and Mg/ATP (according to the required concentration). The reaction was initiated by adding Mg/ATP mixture. After 30 minutes of incubation at room temperature, the reaction was stopped by adding a stop solution containing EDTA. Finally, detection buffer (containing labeled anti-GST monoclonal antibody and europium-labeled anti-Ser15 antibody against phosphorylated p53) was added. The plate was then read in time-resolved fluorescence mode, and the homogeneous time-resolved fluorescence (HTRF) signal was determined according to the formula HTRF=10000×(Em665 nm/Em620 nm).
In general terms: TR-FRET usually uses a lanthanide donor and a delayed reading to cut background.

With `Cc1cc2ncnn2cc1Nc1ncc2c(n1)n(N1CC3CC1CO3)c(=O)n2C` (single isomer, unassigned) [Compound 8], the IC50 came out at 7 nM.

In the case of `Cc1cc2ncnn2cc1Nc1ncc2c(n1)n(N1CC3CC1CO3)c(=O)n2C` (single isomer, unassigned) [Compound 9], the IC50 stood at 3 nM.

For orientation: IC50 means the concentration at which inhibition is half-maximal.
